Reference: patent publication US7407671B2, “Temperature controlled solute delivery system” (Boston Scientific Scimed, Inc., priority 1998, dated 2008)

Experiment: Solute release from bonded HPC gel membranes (modified HPLC system)
Format: physicochemical
Experimental: Solute release tests were conducted in the same manner as for PNIPA gels, as described in Example 1. The solute release experiments were designed to model the actual conditions of catheter use, which entail therapeutic solute loading at room temperature (25° C.), insertion of the catheter into the patient at 37° C., and temperature induced enhanced solute release when the catheter is placed at a target location in the body. While the experimental design was generally successful in modeling the actual use of catheter, heat lost to the experimental apparatus tubing reduced the 37° C. test temperature to 33° C. Because the transition temperature of HPC is fairly sharp (in this case, 43° C.), the reduction of test temperature from 37° C. to 33° C. had little impact on the test results.
Solute release experiments were conducted under four constant temperature conditions and three step change conditions. […] Thus, test temperatures below and above the transition temperature of HPC (43° C.) were used. […]

## FITC-dextran [reference compound]
24° C. to 46° C. trigger
  solute released in the five minutes following the trigger: 37%
24° C. to 53° C. trigger
  solute released in the five minutes following the trigger: 65%
